## Measured affinities in a library of Ab-95 light chain variants

Target: peptide PDVDLGDISGINAS, taken from heptad repeat 2 (HR2) of SARS-CoV-2 spike.

Parent scFv Ab-95: VH joined to VL by the linker GGGGSGGGGSGGGGS. Changes lie in the light chain CDRs alone.
VH: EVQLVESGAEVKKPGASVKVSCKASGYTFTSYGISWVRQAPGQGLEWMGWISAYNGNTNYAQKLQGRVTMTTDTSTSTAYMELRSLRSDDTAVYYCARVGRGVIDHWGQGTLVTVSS
VL: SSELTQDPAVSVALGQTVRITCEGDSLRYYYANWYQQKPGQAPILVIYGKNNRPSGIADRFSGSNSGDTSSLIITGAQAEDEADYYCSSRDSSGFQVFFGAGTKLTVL

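The starting antibody came from a phage panning campaign against this peptide. The library (AAYL52) carries one to three amino acid substitutions per variant, with no insertions or deletions. The assay is AlphaSeq: two haploid yeast populations carry antibody and antigen on their surface. Pairs that bind mate more often; barcode pairs of the diploids are counted by sequencing. A regression on co-assayed BCL2-family reference pairs converts the normalised counts of each replicate to an apparent Kd. Each pool was mated in three replicate cultures.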

Positions count from residue 1 of the parent VL; A32E puts E in place of A.
Every variant below is changed at N52 of the VL (sequential numbering).
The Kd shown is the geometric mean over detected replicates; a lower Kd is a better binder.
"no signal" means that the variant was in the library but no mating with the target was seen in any replicate; the authors take this as a sign of poor binding, and no number exists.
Background: pairings of library AAYL52 with three empty control strains gave a value in 28% of cases (median 8.2 µM, 5th percentile 800 nM). Values in that range, when seen in few replicates, are hard to tell from nonspecific mating. The control count says in how many pairings with the empty strains this scFv gave a signal.

For A32E N52Q F98A, the assay gave no signal (0 of 3 replicates; controls 0 of 9). The variant N52M showed 84 nM (3 of 3 replicates; controls 4 of 9). For S26Y Y31A N52D, the assay gave 940 nM (3 of 3 replicates; controls 4 of 9). With G49N N52K S88N the result was 810 nM (3 of 3 replicates; controls 4 of 9). The variant G24T N52T S89M showed 3.8 µM (3 of 3 replicates; controls 5 of 9). The variant N52Y F95L F98T showed 3.1 µM (3 of 3 replicates; controls 1 of 9).

For R28A N52Y P54R, the assay gave 4.1 µM (2 of 3 replicates; controls 6 of 9). With G49K N52Y Q96F the result was 120 µM (2 of 3 replicates; controls 1 of 9). For S26A N52K R90S, the assay gave 28 µM (1 of 3 replicates; controls 5 of 9). The variant K50S N52W S89M gave 24 µM (3 of 3 replicates; controls 5 of 9). The variant N52Y P54C S92M showed 5.6 µM (3 of 3 replicates; controls 3 of 9). With N52P R53N the result was 140 µM (1 of 3 replicates; controls 2 of 9).

The variant N33F N52K D91M gave 3.6 µM (2 of 3 replicates; controls 5 of 9). For N52W G94T, the assay gave no signal (0 of 3 replicates; controls 0 of 9). For E23V N52D, the assay gave 200 nM (3 of 3 replicates; controls 1 of 9). For N52A G94Q V97L, the assay gave 520 nM (3 of 3 replicates; controls 4 of 9). With N52T R53T S55N the result was 460 nM (3 of 3 replicates; controls 3 of 9). The variant Y31M K50D N52L gave 3.9 nM (3 of 3 replicates; controls 3 of 9).

The variant N51L N52M R53Y gave no signal (0 of 3 replicates; controls 2 of 9). For D25S N52G S88C, the assay gave 1.1 µM (3 of 3 replicates; controls 2 of 9). The variant N52K P54C F98K showed 3.9 µM (2 of 3 replicates; controls 1 of 9). The variant N52S S93L showed 870 nM (3 of 3 replicates; controls 3 of 9). The variant S26V N52D S92N gave 1.5 µM (2 of 3 replicates; controls 2 of 9). With Y30T N52K G94Q the result was no signal (0 of 3 replicates; controls 0 of 9).

The variant G24W G49F N52T gave 4.4 µM (1 of 3 replicates; controls 0 of 9). With N52L S92M the result was 200 nM (3 of 3 replicates; controls 2 of 9). For N51L N52L S92W, the assay gave 2.2 µM (1 of 3 replicates; controls 5 of 9). The variant Y29S N33G N52D showed no signal (0 of 3 replicates; controls 0 of 9). For D25E Y31G N52P, the assay gave 160 nM (3 of 3 replicates; controls 4 of 9). The variant Y30K N52S S55C gave 14 nM (3 of 3 replicates; controls 6 of 9).

With N52R S88N S92Q the result was 650 nM (3 of 3 replicates; controls 2 of 9). The variant R28G N52T R53V showed 2.3 µM (3 of 3 replicates; controls 2 of 9). The variant Y29F A32Q N52R showed 4.3 µM (3 of 3 replicates; controls 4 of 9). The variant N52Y S55N Q96Y showed 4.7 µM (3 of 3 replicates; controls 4 of 9). For S26Y Y30P N52T, the assay gave 800 nM (3 of 3 replicates; controls 2 of 9). For N52R S89W V97I, the assay gave no signal (0 of 3 replicates; controls 2 of 9).

The variant E23M N52G F95P showed 1.5 µM (2 of 3 replicates; controls 0 of 9). With N52G D91C S93P the result was 12 µM (1 of 3 replicates; controls 2 of 9). The variant N52D R90F gave no signal (0 of 3 replicates; controls 1 of 9). For N33H N52E S93V, the assay gave no signal (0 of 3 replicates; controls 3 of 9). With L27Q Y31R N52A the result was 2.5 µM (3 of 3 replicates; controls 6 of 9). The variant S26L N52V showed 350 nM (3 of 3 replicates; controls 5 of 9).

The variant G24R N52W F98L showed no signal (0 of 3 replicates; controls 4 of 9). With N33M N52C the result was 9.1 µM (3 of 3 replicates; controls 5 of 9). The variant L27D Y29R N52C showed 3.6 µM (3 of 3 replicates; controls 5 of 9). With D25S R28I N52Q the result was 1.0 µM (3 of 3 replicates; controls 3 of 9). The variant Y29R N52D gave 30 nM (3 of 3 replicates; controls 3 of 9). With K50N N51H N52Y the result was 4.0 µM (3 of 3 replicates; controls 2 of 9).

The variant N52V R53I S92Y gave no signal (0 of 3 replicates; controls 0 of 9). The variant Y30L A32E N52C gave 6.2 µM (1 of 3 replicates; controls 4 of 9).

A selection of 5 entries from above:

For N52Y P54C S92M, the assay gave 5.6 µM (3 of 3 replicates; controls 3 of 9).
For N52G D91C S93P, the assay gave 12 µM (1 of 3 replicates; controls 2 of 9).
For R28A N52Y P54R, the assay gave 4.1 µM (2 of 3 replicates; controls 6 of 9).
For N52V R53I S92Y, the assay gave no signal (0 of 3 replicates; controls 0 of 9).
For G24R N52W F98L, the assay gave no signal (0 of 3 replicates; controls 4 of 9).

Parent in this assay: reference entry 200 nM, copy in this library 180 nM.

Values reported by Engelhart et al. 2022, doi:10.1038/s41597-022-01779-4 (FLAb copy).